Test results published in patent US20160122307A1, “PERHYDROQUINOXALINE DERIVATIVES” (DR. AUGUST WOLFF GMBH & CO. KG ARZNEIMITTEL, priority 2013, published 2016).

Chains of the proteins cited; added tags and fusions are not shown. Lines headed by an entry give the natural chain unless they say otherwise; changes in a name come on top.
UniProt P41145: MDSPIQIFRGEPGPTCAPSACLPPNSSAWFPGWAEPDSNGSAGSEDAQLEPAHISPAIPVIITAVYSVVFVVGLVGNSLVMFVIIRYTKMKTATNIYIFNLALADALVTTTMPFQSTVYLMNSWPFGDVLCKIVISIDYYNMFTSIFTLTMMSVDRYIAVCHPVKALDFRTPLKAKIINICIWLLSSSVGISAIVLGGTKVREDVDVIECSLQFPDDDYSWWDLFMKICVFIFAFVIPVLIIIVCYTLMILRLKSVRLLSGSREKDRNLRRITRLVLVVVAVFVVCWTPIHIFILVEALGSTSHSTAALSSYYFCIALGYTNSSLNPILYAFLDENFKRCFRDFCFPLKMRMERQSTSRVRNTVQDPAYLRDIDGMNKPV
UniProt P41144: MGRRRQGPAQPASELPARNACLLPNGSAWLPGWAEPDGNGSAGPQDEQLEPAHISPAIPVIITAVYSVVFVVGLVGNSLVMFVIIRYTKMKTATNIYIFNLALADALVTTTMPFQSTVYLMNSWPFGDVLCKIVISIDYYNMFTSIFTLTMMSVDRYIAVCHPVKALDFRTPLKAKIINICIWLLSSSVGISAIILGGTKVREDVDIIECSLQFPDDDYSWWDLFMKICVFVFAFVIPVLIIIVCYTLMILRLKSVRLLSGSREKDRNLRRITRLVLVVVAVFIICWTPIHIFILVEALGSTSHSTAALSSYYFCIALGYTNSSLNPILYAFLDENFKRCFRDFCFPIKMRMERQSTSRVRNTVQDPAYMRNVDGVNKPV

Columns and labels:
[1] = biological target: Human opiate κ receptors (Homo sapiens, UniProt P41145); test: κ opioid receptor functional assay, [35S]GTPγS binding (assay C); format: biochemical
[2] = biological target: T1, κ receptor (Cavia porcellus, UniProt P41144); test: biochemical; format: binding, guinea pig
T1 construct: Membrane homogenates prepared from guinea pig brains were used as receptor material; from tissue; host or cells: guinea pig brain membrane homogenates

COC(=O)N1CCN(C(=O)Cc2ccc(Cl)c(Cl)c2)[C@@H]2[C@@H](N3CCCC3)CCC[C@@H]21 [Example 89, (4aR,5S,8aS)-methyl 4-(2-(3,4-dichlorophenyl)acetyl)-5-(pyrrolidin-1-yl)octahydroquinoxaline-1(2H)-carboxylate]
EC50 ([1]; GTPγS EC50 (nM)): 10 to 100 nM
EC50 ([1]; read-out: GTPγS EC50): 1.99 nM

COC(=O)N1CCN(C(=O)Cc2ccc(Cl)c(Cl)c2)[C@H]2[C@H](N3CCCC3)CCC[C@@H]21 (racemic) [Reference compound B, reference compound]
Ki [2]: 23.6 ± 6.4 nM

COC(=O)N1CCN(C(=O)Cc2ccc(Cl)c(Cl)c2)[C@H]2[C@@H](N3CCCC3)CCC[C@@H]21 (single isomer, unassigned) [Reference compound F]
Ki ([2]; read-out: Ki (nM) ± SEM): 115 ± 38 nM

COC(=O)N1CCN(C(=O)Cc2ccc(Cl)c(Cl)c2)[C@@H]2[C@H]1CCC[C@@H]2N1CCCC1 (racemic) [Reference compound E, reference compound]
EC50 ([1]; read-out: GTPγS EC50): 351 nM

Where two headings read alike, the source gives them in different places.
